Results reported in US20260325465A1, “SHP-1 INHIBITORS FOR TREATING CANCER” (MDX MANAGEMENT LLC, priority 2022, published 2026).

Test system: PTP/SHP-1 activity in KPC tumor
Assay: PTP/SHP-1 activity in KPC tumor in vivo
Set-up: species or system murine
Details: therapeutic treatment of KPC tumor
Description: FIGS. 7A-7F depict that the inhibition of SHP-1 unleashes proinflammatory response and antigen presentation in solid tumor upon therapies. […] Low PTP/SHP-1 activity was found in untreated, homeostatic tumor. […] Similar data were obtained by studying colorectal carcinoma MC38.

Compound: Cn1cnc([N+](=O)[O-])c1Sc1ncnc2nc[nH]c12 [Azathioprine (AZA), Azathioprine]
- PTP/SHP-1 activity induced in tumor: induced
